Data from PubChem BioAssay AID1776 (NMMLSC, 2009).
The entries are a selection whose mix differs from that of the whole data set. Some tests of the compounds listed are not included; inactive here does not mean inactive elsewhere. Active and inactive are the calls of the source. Cut-off read from the data, not from the text of the source: active = fluorescence above about 89; inactive = the rest.

Experiment: compound fluorescence on glutathione beads, profiling panel, artefact control, biophysical, 488/530 nm, flow cytometry (AID 1776);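 note: glutathione beads carrying GST-tagged Bcl family fusion proteins plus one bare bead set; values are compound well signal with DMSO vehicle wells as background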
Conditions: GSH beads flow cytometry, compound fluorescence 488/530 nm; at 10 µM; hits give high values
For `O=C(NCC1(N2CCCCC2)CCCCC1)c1cc([N+](=O)[O-])ccc1Cl`, the fluorescence (KMESF) was inactive: 16.
For `CC(C)N1C(=O)CC2(CCN(CCOC(=O)C(O)(c3ccccc3)c3ccccc3)CC2)C1=O`, the fluorescence (KMESF) was inactive: 14.
For `CN(C)C1CCCC1OC(=O)C(O)(c1ccccc1)c1ccccc1` (centres undefined), the fluorescence (KMESF) was inactive: 17.
With `Cc1ccccc1C(=O)NCC1(N2CCCCC2)CCCCC1` the fluorescence (KMESF) was inactive: 28.
For `C=CCN1CCN(CCOC(=O)C(O)(c2ccccc2)c2ccccc2)CC1`, the fluorescence (KMESF) was inactive: 21.
For `CCN1CCCC(OC(=O)C2(O)c3ccccc3C=Cc3ccccc32)C1` (centres undefined), the fluorescence (KMESF) was inactive: 9.
With `COc1cccc(C(=O)NCC2(N3CCCCC3)CCCCC2)c1` the fluorescence (KMESF) was inactive: 14.
In the case of `O=C(OC1CN2CCC1CC2)C(CO)(c1ccccc1)c1ccccc1` (centres undefined), the fluorescence (KMESF) is reported as inactive: 27.
For `CN(C)c1cccc(C(=O)NCC2(N(C)C)CCCCC2)c1`, the fluorescence (KMESF) was inactive: 19.
